# TDP1 cell CPT: DT40-hTDP1 cell growth loss with CPT | chicken DT40 Tdp1-/-;hTDP1 cells + 20 nM CPT, ATP luminescence, 48 h | Potency, µM (series often up to 46.2 µM), for inactives: at the top dose activity change, negative = growth inhibition, actives largely listed as inhibitors | 420,000 tested, 12% active; further: potency means the concentration at half of the fitted maximal effect; on the % scale 0 is the no-effect control and ±100 the full control effect; nearly all actives have a fitted effect of over 55% in size
#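 Cell growth measured by CellTiter-Glo luminescence after a minimum 48 h, 37 C compound exposure with 20 nM CPT in Tdp1-knockout DT40 cells stably expressing hTDP1, seeded 400/well; qHTS titration format.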
# miR-21 FLuc: miR-21 reporter, rising signal | 340,000 tested, under 10 active | AID 2288 | HeLa miR-21 FLuc reporter, luciferase, 48 h | Potency, µM (titrated, usually from 38.3 µM), for inactives: at the highest dose reporter change, positive = more light; active = well fitted rising curve with a large enough effect; inconclusive = small, poorly fitted or top-dose-only effect; inactive = no such curve, though single readings can be large or run the other way;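 further: % of control where 0% means no effect; miR-21 action dims this reporter so a rising signal means less miR-21 action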
#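 Compounds were titrated across several concentrations (up to approximately 40 uM) and incubated 48 hours with HeLa miR-21-FLuc reporter cells (miR-21 target sequence downstream of FLuc, endogenous miR-21). Readout was firefly luciferase luminescence after lytic detection reagent.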
# uPA generation: blocks generation of uPA at the cell surface; cell surface uPA generation assay, qHTS; Potency, µM (doses to about 38.3 µM), for inactives: top-dose activity change, negative = inhibition, usual class: inhibitors; 330,000 tested, 0.31% active; active means well fitted inhibition curve with a large enough effect; inconclusive means small, poorly fitted or top-dose-only effect; inactive means no such curve, though single readings can be large or run the other way; tested in mouse RAW 264.7 cells; further: potency means the concentration at half of the fitted maximal effect; on the % scale 0 is the no-effect control and ±100 the full control effect; nearly all actives have a fitted effect of over 55% in size
# DT40 TDP1 no CPT: qHTS for Inhibitors of human tyrosyl-DNA phosphodiesterase 1 (TDP1): qHTS in cells in absence of CPT; DT40 Tdp1-/- hTDP1 cells, no CPT, ATP luminescence, 48 h; Potency, µM (series often up to 46.2 µM), inactives show at the top dose activity change, negative = growth inhibition, most hits filed as inhibitors; 420,000 tested, 15% active; further: potency means the concentration at half of the fitted maximal effect; on the % scale 0 is the no-effect control and ±100 the full control effect; nearly all actives have a fitted effect of over 55% in size
#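 Chicken DT40 Tdp1-/- cells stably complemented with human TDP1 were seeded at 400 cells/well with DMSO in place of 20 nM camptothecin. After compound pinning, cells grew at least 48 hr at 37 °C; viability read by CellTiter-Glo luminescence.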
# TDP1 inh: TDP1 (human) enzyme inhibition; Q9NUW8; recombinant TDP1, AlphaScreen DNA substrate cleavage; Potency, µM (highest dose often 130 µM), inactives show at the top dose activity change, negative = inhibition, hits mostly inhibitors; 350,000 tested, 0.28% active; AID 485290; further: potency means the concentration at half of the fitted maximal effect; on the % scale 0 is the no-effect control and ±100 the full control effect; nearly all actives have a fitted effect of over 40% in size
#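 Recombinant human Tdp1 (E. coli-expressed, 1 nM final) preincubated with compounds 15 min at room temperature, then 5'-biotin/3'-phosphotyrosine-FITC DNA substrate (15 nM final) added for 5 min. AlphaScreen beads (10 ug/ml final) added 10 min; cleavage lowers signal.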
# * marks the source's active call; other numbers are inactive results; ? = inconclusive; . = no result given; ! = not active in a repeat; [ ] = another dose, or the depositor's remark. This is a sample that favours compounds with a hit; in the whole collection about 16% have one here. Unless noted, the call rests on the fitted dose curve; in most records, active means well fitted curve in the direction sought with a large enough effect; inconclusive means small, poorly fitted or top-dose-only effect, or another doubt; inactive means no such curve, though single readings can be large; an effect the other way counts as inactive or inconclusive.
SMILES,TDP1 cell CPT,miR-21 FLuc,uPA generation,DT40 TDP1 no CPT,TDP1 inh
COc1ccccc1CC(NC(C)=O)C(=O)NC1CCN(C(=O)Nc2ccccc2F)CC1 (stereo not drawn),3%,2%,-1%,-5%,.
CC(=O)OC[C@@H]1O[C@H](CCO/N=C(\C)CCN2CCCCc3nc(C)c(C)cc32)C=C[C@@H]1OC(C)=O,.,.,.,.,4%[21 µM]
CC(C)C1C(c2ccccc2)NC(c2ccccc2)CC1(O)c1ccc(F)cc1 (stereo not drawn),?,?,-19%,15µM*,.
Cn1c(N)c(C(=O)CSc2nn(-c3ccc(F)cc3)c(=S)s2)c(=O)n(C)c1=O,21µM*,.,11%,23µM*,-4%
CCCCN(C(=O)CSc1nn(-c2ccc(F)cc2)c(=S)s1)c1c(N)n(CCCC)c(=O)[nH]c1=O,?,.,2%,29µM*,2%
Cn1c(N)c(C(=O)COC(=O)Cc2ccc(F)cc2)c(=O)n(C)c1=O,1%,.,-2%,-9%,-14%
CCCCN(C(=O)CSc1nc2ccccc2s1)c1c(N)n(CCCC)c(=O)[nH]c1=O,-2%,.,-3%,?,1%
Cc1c(C(=O)NCc2ccccc2CN2CCCC2)oc2c(F)cccc12,?,.,18%,?,0%
Cn1c(=O)n(C)c2cc(NS(=O)(=O)c3ccc(C(C)(C)C)cc3)ccc21,18µM*,13%,7%,18µM*,.
CC(=O)Nc1ccc(NS(=O)(=O)c2ccc3c(c2)n(C)c(=O)n3C)cc1,-1%,-1%,5%,-2%,.
Cc1ccc(NS(=O)(=O)c2ccc3c(c2)n(C)c(=O)n3C)cc1,?,3%,-8%,-21%,.
Cn1c(=O)n(C)c2cc(NS(=O)(=O)c3ccc4c(c3)CCCC4)ccc21,18µM*,18%,.,?,7%
Cn1c(=O)c2cc(S(=O)(=O)Nc3ccc4c(c3)OCO4)ccc2n(C)c1=O,2.1µM*,6%,-15%,7.1µM*,7%
CCN(CC)C(=O)CSC1=Nc2ccccc2C2=NC(Cc3c[nH]c4ccccc34)C(=O)N12 (stereo not drawn),9%,-13%,2%,?,7%
CC(CC(=O)Nc1ccc(Br)cc1F)S(=O)(=O)c1ccc2c(c1)NC(=O)CO2 (stereo not drawn),?,15%,-5%,?,1%
CSc1nc2ccc(NC(=O)c3ccccn3)cc2s1,6%,-26%,-3%,?,9%
CCOc1ccc(CCNC(=O)c2ccc3c(=O)[nH]c4c(C(=O)NC(C)C)sc(=S)n4c3c2)cc1,23µM*,-2%,11%,13µM*,-13%
CCc1ccccc1NC(=O)CCc1c(C)nc2cc(-c3ccccc3)nn2c1C,?,-4%,.,18µM*,3%
CCOC(=O)CC(NC(=O)CCc1c(C)nc2c(-c3ccccc3)c(C)nn2c1C)c1ccc(OC(C)C)cc1 (stereo not drawn),?,18%,.,?,-5%
Cc1nc2cc(-c3ccccc3)nn2c(C)c1CCC(=O)Nc1ccc(F)cc1F,10µM*,29%,.,12µM*,7%

# Single values from above:
# CCc1ccccc1NC(=O)CCc1c(C)nc2cc(-c3ccccc3)nn2c1C – miR-21 FLuc: -4%
# CCOc1ccc(CCNC(=O)c2ccc3c(=O)[nH]c4c(C(=O)NC(C)C)sc(=S)n4c3c2)cc1 – TDP1 cell CPT: 23µM*

# Continuation.
SMILES,TDP1 cell CPT,miR-21 FLuc,uPA generation,DT40 TDP1 no CPT,TDP1 inh
COc1ccccc1CNC(=O)CCc1c(C)nc2cc(-c3ccc(Cl)cc3)nn2c1C,-24%,-4%,.,-17%,1%
CCOC(=O)CC(NC(=O)CCc1c(C)nc2cc(-c3ccccc3)nn2c1C)c1ccc(C)cc1 (stereo not drawn),16µM*,?,.,18µM*,7%
Cc1csc(NC(=O)CCc2c(C)nc3cc(-c4ccc(Cl)cc4)nn3c2C)n1,18µM*,18%,-12%,13µM*,-3%
CCSc1nnc(Cc2cc(=O)[nH]c(=O)[nH]2)n1-c1ccc(F)cc1,7%,-10%,12%,1%,-3%
CCOc1ccc(NC(=S)NCCCN2CCN(c3ccc(OC)cc3)CC2)cc1,2%,14%,-1%,-28%,5%
CCCCCCCCCCCCCCCC(=O)OCCC1CCN(CCCN2c3ccccc3Sc3ccc(S(=O)(=O)N(C)C)cc32)CC1,1%,.,.,-20%,.
CC(=O)c1ccc2c(c1)N(CCCN1CCC(CCO)CC1)c1ccccc1S2,11µM*!,.,?,?,13%[21 µM]
OCCN1CCN(CCCN2c3ccccc3Sc3ccc(Cl)cc32)CC1,23µM*,?,2%,29µM*,8%
CN1CCCC[C@@H]1CCN1c2ccccc2Sc2ccc(S(C)=O)cc21 (stereo partly drawn),.,.,.,.,4%
CN(C)CCCN1c2ccccc2Sc2ccc(Cl)cc21,11µM*!,23%,?,23µM*!,11%
CN1CCN(CCCN2c3ccccc3Sc3ccc(S(=O)(=O)N(C)C)cc32)CC1,16µM*,.,15%,23µM*,12%[21 µM]
Cc1ccc(NC(=O)COC(=O)Cn2ccc(C(F)(F)F)n2)cc1Cl,-1%,.,-1%,0%,-8%
CCN(CC(=O)Nc1ccccc1C(F)(F)F)CC(=O)c1[nH]c(C)c(C(C)=O)c1C,23µM*,.,.,16µM*,.
CCOC(=O)c1c(C)[nH]c(C(=O)COC(=O)[C@H](C)NC(=O)c2ccccc2Cl)c1C,-8%,-49%,0%,-28%,5%
CC(=O)c1c(C)[nH]c(C(=O)CN(C)CC(=O)Nc2ccccc2Cl)c1C,?,.,-7%,21µM*,3%
CCOC(=O)c1c(C)[nH]c(C(=O)CN(C)CC(=O)Nc2ccccc2Cl)c1C,?,.,1%,21µM*,0%[56.1 µM]
Cc1cc(OC(=O)C(C)(C)C)c([N+](=O)[O-])c(=O)[nH]1,-5%,-2%,-2%,1%,-5%
COc1ccc(N(CC(=O)Nc2c(C)n(C)n(-c3ccccc3)c2=O)S(=O)(=O)c2ccc(C)cc2)cc1OC,1%,1%,2%,0%,1%
CCC(=O)N1CCc2cc(S(=O)(=O)CCC(=O)Nc3cc(Cl)ccc3OC)ccc21,?,-1%,.,?,9%
Cc1ccc(C)c(N(CC(=O)NC2CCCC2)C(=O)c2cc3cc4cccc(C)c4nc3s2)c1,?,2%,7%,?,0%

# Grouped by structure, the compounds so far containing a tert-butyl group (2)
SMILES,TDP1 cell CPT,miR-21 FLuc,uPA generation,DT40 TDP1 no CPT,TDP1 inh
Cn1c(=O)n(C)c2cc(NS(=O)(=O)c3ccc(C(C)(C)C)cc3)ccc21,18µM*,13%,7%,18µM*,.
Cc1cc(OC(=O)C(C)(C)C)c([N+](=O)[O-])c(=O)[nH]1,-5%,-2%,-2%,1%,-5%

# New compounds follow.
SMILES,TDP1 cell CPT,miR-21 FLuc,uPA generation,DT40 TDP1 no CPT,TDP1 inh
Cc1ccc2cc3cc(C(=O)N(CC(=O)NC4CCCC4)c4cccc(C)c4C)sc3nc2c1,23µM*,-4%,-13%,18µM*,-3%
Cc1cc(-c2nnc(-c3ccccc3)c(-c3ccccc3)n2)c(C)o1,?,-5%,0%,?,8%
O=C(N/N=C1/CC2CCC1C2)c1cc2ccccc2cc1O (stereo not drawn),23µM*,0%,1%,21µM*,5%
CC1CCC(NC(=O)c2cc3ccccc3cc2O)CC1 (stereo not drawn),?,.,-26%,?,-3%

# Of the compounds above, 2 contain a CF3 group.
SMILES,TDP1 cell CPT,miR-21 FLuc,uPA generation,DT40 TDP1 no CPT,TDP1 inh
Cc1ccc(NC(=O)COC(=O)Cn2ccc(C(F)(F)F)n2)cc1Cl,-1%,.,-1%,0%,-8%
CCN(CC(=O)Nc1ccccc1C(F)(F)F)CC(=O)c1[nH]c(C)c(C(C)=O)c1C,23µM*,.,.,16µM*,.

# Screening data deposited in PubChem BioAssay by National Center for Advancing Translational Sciences (NCATS).
